According to patent publication US20260124309A1, “STAT6 DEGRADERS AND USES THEREOF” (Kymera Therapeutics, Inc., priority 2023, published 2026):
Read-outs that look alike come from different tables or passages of the source.

Protein sequences, listed by entry. Tags and fused reporters are not part of them. Residues count along the entry.
UniProt P42226, whole entry: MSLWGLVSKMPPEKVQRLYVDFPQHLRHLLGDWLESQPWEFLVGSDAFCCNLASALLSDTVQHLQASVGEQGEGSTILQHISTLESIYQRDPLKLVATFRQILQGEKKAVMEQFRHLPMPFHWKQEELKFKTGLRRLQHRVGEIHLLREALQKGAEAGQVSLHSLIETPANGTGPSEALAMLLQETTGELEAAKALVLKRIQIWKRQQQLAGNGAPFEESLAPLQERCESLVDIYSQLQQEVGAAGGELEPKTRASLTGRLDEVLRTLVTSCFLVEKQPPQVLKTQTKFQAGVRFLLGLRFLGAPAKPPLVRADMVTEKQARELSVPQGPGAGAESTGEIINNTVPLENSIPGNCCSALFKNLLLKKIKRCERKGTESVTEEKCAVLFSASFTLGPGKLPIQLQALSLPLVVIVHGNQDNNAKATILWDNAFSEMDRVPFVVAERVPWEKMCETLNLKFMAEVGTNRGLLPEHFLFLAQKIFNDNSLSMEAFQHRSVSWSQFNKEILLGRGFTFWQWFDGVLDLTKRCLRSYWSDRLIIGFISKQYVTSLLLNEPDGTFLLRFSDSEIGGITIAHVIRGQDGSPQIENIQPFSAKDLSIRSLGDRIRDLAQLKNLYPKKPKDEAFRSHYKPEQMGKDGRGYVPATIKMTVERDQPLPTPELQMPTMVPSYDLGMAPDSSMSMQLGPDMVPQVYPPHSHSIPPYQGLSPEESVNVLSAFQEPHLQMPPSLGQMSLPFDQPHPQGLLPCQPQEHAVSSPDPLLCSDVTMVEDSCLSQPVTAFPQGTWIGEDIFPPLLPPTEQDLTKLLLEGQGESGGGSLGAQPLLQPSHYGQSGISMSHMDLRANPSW
UniProt P42226, 123-632 limits assumed: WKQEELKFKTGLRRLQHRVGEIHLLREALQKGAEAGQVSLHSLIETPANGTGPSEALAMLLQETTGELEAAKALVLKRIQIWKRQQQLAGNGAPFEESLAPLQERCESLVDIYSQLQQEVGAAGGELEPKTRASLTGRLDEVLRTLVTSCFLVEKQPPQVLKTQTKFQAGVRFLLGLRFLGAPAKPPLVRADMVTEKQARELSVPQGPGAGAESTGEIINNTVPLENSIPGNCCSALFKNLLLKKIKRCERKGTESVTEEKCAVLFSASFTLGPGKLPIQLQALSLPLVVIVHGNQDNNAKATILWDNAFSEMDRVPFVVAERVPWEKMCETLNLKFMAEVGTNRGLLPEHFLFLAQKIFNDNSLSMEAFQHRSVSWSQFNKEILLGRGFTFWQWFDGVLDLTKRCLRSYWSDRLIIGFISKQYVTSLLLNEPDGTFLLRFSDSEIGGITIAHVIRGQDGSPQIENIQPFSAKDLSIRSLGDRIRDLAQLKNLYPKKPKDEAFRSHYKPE

Experiments:
[1] = target: biotinylated truncated STAT6 (123-632)-avi (Homo sapiens, UniProt P42226); test: STAT6 HTRF binding assay; settings: read-out: STAT6 HTRF: Average IC50, 0.15 nM biotinylated truncated STAT6 (123-632)-avi, 20 nM fluorescein-labeled probe
Method: HTRF binding assays were performed using 0.15 nM biotinylated truncated STAT6 (123-632)-avi purified from E. coli, 1× Streptavidin-terbium (CisBio) prepared by mixing SA-Tb in PPI detection buffer (CisBio), 20 nM proprietary fluorescein-labeled probe, and test compounds in assay buffer consisting of 50 mM HEPES-Na pH 7.5, 100 mM NaCl, 1 mM EDTA, 2 mM DTT, 0.1% Tween-20 with a final volume of 20 uL. Compound stocks were dissolved at 10 mM in 100% DMSO and 11 point titration with 3 fold serial dilution was performed in white, opaque 384 well microplates. Reaction plates were incubated at room temperature for 30 minutes. Plates were centrifuged at low rpm for 5 mins, and the ratio of fluorescence intensities were measured at emission wavelengths for fluorescein acceptor (520 nm) and terbium donor (495 nm) on Envision Plate reader. % Inhibition was calculated from the 520/495 ratio generated by using proprietary positive control compound for 100% inhibition and DMSO only reactions for 0% inhibition. Data was processed and dose response curves were generated using GraphPad Prism to determine the concentration required for inhibiting 50% of the HTRF signal (IC50).
The letter codes for IC50 (μM) include: A (<0.1 μM); B (0.1-1 μM); C (>1-10 μM); D (>10-100 μM); E (>100 μM); and F (not tested).

[2] = target: STAT6 (Homo sapiens, UniProt P42226); test: STAT6 MSD degradation in A549 cells; settings: for DC50: read-out: STAT6 MSD degradation DC50 (nM) 24 h
Method: Degradation of STAT6 in cells was quantitatively measured using Meso Scale Discovery (MSD) technology. A549 cells were seeded in 96-well plates with a density of 1.5×10e4 to 5×10e5 cells per well in 100 μl fresh media. Compounds were then added to the assay plates with a final top concentration of up to 10 uM in a 1:3 dilution series with total of 9 doses. The assay plates were then incubated for 4 to 24 hours at 37° C. under 5% CO2. The assay plates were then centrifuged for 5 minutes and the cell pellets were treated with 100 μl/well RIPA lysis buffer (Boston Bioproducts, BP-115D) with protease and phosphatase inhibitors (Roche, 05892791001 and 04906837001). To prepare the MSD assay plates (MSD, L15XA), the plates were coated with the capture antibody (Abnova, H00006778) in PBS, at 40 μl/well. The plates were then incubated overnight at 4° C., washed 1 time with 150 μl/well TBST buffer (Cell Signaling Technology, #9997S) and blocked with 150 μl/well blocking buffer (MSD, R93BA-4). Cell lysates were then added to MSD assay plates and the plates were incubated at room temperature for 1 hour. The plates were then washed 3 times with 150 μl/well TBST buffer and 25 μl/well primary detection antibody (Cell Signaling Technology, #5397S). The assay plates were then incubated at room temperature for 1 hour, washed 3 times with 150 μl/well TBST buffer, and 25 μl/well secondary detection antibody, SULFO-TAG anti-rabbit antibody (MSD, R32AB-1) were added. The assay plates were then incubated at room temperature for 1 hour, washed 3 times with 150 μl/well TBST buffer, and 150 μl/well MSD reading buffer (MSD, R92TC-2) were added. The plates were then analyzed by an MSD reader. The data was analyzed by GraphPad Prism and the dose dependent STAT6 degradation was fit using the four-parameter inhibitor vs. response nonlinear regression.
The letter codes for DC50 (nM) include: A (<1 nM); B (1-10 nM); C (>10-100 nM); D (>100-1000 nM); E (>1000 nM); and F (not tested). The letter codes for Dmax (oo) include: A (>90%); B (>70-90%); C (>50-70%); D ([…]); and F (not tested).

SMILES	IC50 ([1]; HTRF binding) [nM]	STAT6 MSD degradation Dmax % 24 h [2]	DC50 [2] [nM]	IC50 ([1]; 30 minutes at room temperature) [nM]
COc1cc(N2CCC(c3ccc(-c4cc(C5=CCCN(C(=O)CCn6cccn6)C5)c(F)c5[nH]c(C(=O)N(C)C)cc45)c(C)c3)CC2)c(F)cc1NC1CCC(=O)NC1=O (stereo not drawn)	< 100	B (B (>70-90%))	1 to 10	
COc1cc(N2CCC(N3CCN(c4ccc(-c5cc([C@H]6CCCN(C(=O)CCn7cccn7)C6)c(F)c6[nH]c(C(=O)N(C)C)cc56)cc4)CC3)CC2)c(F)cc1NC1CCC(=O)NC1=O (stereo partly drawn)	< 100	A (A (>90%))	< 1	
COc1cc([C@H]2CC[C@@H](c3ccc(-c4cc(C5=CCCN(C(=O)CCn6ccnn6)C5)c(F)c5[nH]c(C(=O)N(C)C)cc45)cc3)CC2)c(F)cc1NC1CCC(=O)NC1=O (stereo partly drawn)	100 to 1000	A (A (>90%))	< 1	
COc1cc(C2CCN(c3cc(Cl)c(-c4cc(C5=CCCN(C(=O)CCn6cccn6)C5)c(F)c5[nH]c(C(=O)N(C)C)cc45)cc3F)CC2)c(F)cc1NC1CCC(=O)NC1=O (stereo not drawn)	100 to 1000	A (A (>90%))	1 to 10	
COc1cc(N2CCN(c3ccc(-c4cc([C@H]5CCCN(C(=O)CCn6cccn6)C5)c(F)c5[nH]c(C(=O)N(C)C)cc45)c(F)c3F)CC2)c(F)cc1NC1CCC(=O)NC1=O (stereo partly drawn)	< 100	A (A (>90%))	< 1	
COc1cc(N2CC[C@H](c3ccc(-c4cc(C5=CCCN(C(=O)CCn6ccnn6)C5)c(F)c5[nH]c(C(=O)N(C)C)cc45)cc3)[C@H](F)C2)c(F)cc1NC1CCC(=O)NC1=O (stereo partly drawn)	< 100	B (B (>70-90%))	< 1	
COc1cc([C@H]2CC[C@H](c3ccc(-c4cc(C5=CCCN(C(=O)CCn6ccnn6)C5)c(F)c5[nH]c(C(=O)N(C)C)cc45)cc3)CC2)c(F)cc1NC1CCC(=O)NC1=O (stereo partly drawn)	100 to 1000	A (A (>90%))	1 to 10	
CC(=O)N1CCC[C@H](c2cc(-c3ccc(C4CCN(c5cccc6c5n(C)c(=O)n6C5CCC(=O)NC5=O)CC4)cc3C)c3cc(C(=O)N(C)C)[nH]c3c2F)C1 (stereo partly drawn)	1000 to 10000	A (A (>90%))	< 1	
Cc1nn(C2CCC(=O)NC2=O)c2cccc(CCN3CCC(c4cc(Cl)c(-c5cc([C@H]6CCCN(C(=O)CCn7cccn7)C6)c(F)c6[nH]c(C(=O)N(C)C)cc56)cc4F)CC3)c12 (stereo partly drawn)	< 100	A (A (>90%))	< 1	
CC(=O)N1CCC=C(c2cc(-c3ccc(C4CCN(c5cccc6c(C7CCC(=O)NC7=O)nn(C)c56)CC4)cc3C)c3cc(C(=O)N(C)C)[nH]c3c2F)C1 (stereo not drawn)	1000 to 10000	A (A (>90%))	1 to 10	
COc1cc(N2CCC(c3ccc(-c4cc(C5=CCCN(C(=O)CCn6cccn6)C5)c(F)c5[nH]c(C(=O)N(C)C)cc45)c(OC(F)(F)F)c3)CC2)c(F)cc1NC1CCC(=O)NC1=O (stereo not drawn)	< 100	B (B (>70-90%))	1 to 10	
COc1cc(C2CCN(c3cccc4c3n(C)c(=O)n4C3CCC(=O)NC3=O)CC2)ccc1-c1cc(C2=CCCN(C(=O)CCn3ccnn3)C2)c(F)c2[nH]ccc12 (stereo not drawn)	1000 to 10000	B (B (>70-90%))	1 to 10	
COc1cc(C2CCN(c3cccc4c(C5CCC(=O)NC5=O)nn(C)c34)CC2)ccc1-c1cc(C2=CCCN(C(C)=O)C2)c(F)c2[nH]c(C(=O)N(C)C)cc12 (stereo not drawn)	1000 to 10000	A (A (>90%))	< 1	
COc1cc(C2CCN(c3ccc(-c4cc(C5=CCCN(C(=O)CCn6cccn6)C5)c(F)c5[nH]c(C(=O)N(C)C)cc45)c(C4CC4)c3)CC2)c(F)cc1NC1CCC(=O)NC1=O (stereo not drawn)	< 100	A (A (>90%))	< 1	
CC(C)C(=O)N1CCC=C(c2cc(-c3ccc([C@H]4CCN(CCc5cccc6c(C7CCC(=O)NC7=O)nn(C)c56)CC4(F)F)cc3F)c3cc(C(=O)N(C)C)[nH]c3c2F)C1 (stereo partly drawn)	1000 to 10000	A (A (>90%))	< 1	
CC(C)C(=O)N1CCC=C(c2cc(-c3cc(F)c(N4CCN(CCc5cccc6c5n(C)c(=O)n6C5CCC(=O)NC5=O)CC4)cc3Cl)c3cc(C(=O)N(C)C)[nH]c3c2F)C1 (stereo not drawn)	1000 to 10000	A (A (>90%))	< 1	
COc1cc([C@H]2CC[C@H](c3ccc(-c4cc(C5=CCCN(C(=O)CCn6cccn6)C5)c(F)c5[nH]c(C(=O)N(C)C)cc45)c(F)c3)CC2)c(F)cc1NC1CCC(=O)NC1=O (relative stereo)	1000 to 10000	B (B (>70-90%))	1 to 10	
COc1cc(CCC2CCN(c3ccc(C4CCC(=O)NC4=O)cc3F)CC2)ccc1-c1cc(C2=CCCN(C(=O)CCn3ccnn3)C2)c(F)c2[nH]c(C(=O)N(C)C)cc12 (stereo not drawn)	< 100	A (A (>90%))	< 1	
C[C@H](Cn1ccnn1)C(=O)N1CCC=C(c2cc(-c3ccc(C4CCN(c5ccc(NC6CCC(=O)NC6=O)cc5F)CC4)cc3)c3cc(C(=O)N(C)C)[nH]c3c2F)C1 (stereo partly drawn)	1000 to 10000		10 to 100	
CN(C)C(=O)c1cc(-c2ccc(N3CCN(CCc4cccc5c4n(C)c(=O)n5C4CCC(=O)NC4=O)CC3)cc2)c2[nH]c(C3=CCCN(C(=O)CCn4ccnn4)C3)cc2c1 (stereo not drawn)	< 100	A (A (>90%))	1 to 10	
CC(=O)N1CCC=C(c2cc(-c3ccc(N4CCN(CCc5cccc6c5n(C)c(=O)n6C5CCC(=O)NC5=O)CC4)cc3C(F)(F)F)c3cc(C(=O)N(C)C)[nH]c3c2F)C1 (stereo not drawn)	100 to 1000	A (A (>90%))	< 1	
COc1cc(C2CCN(c3cccc4c3n(C)c(=O)n4C3CCC(=O)NC3=O)CC2)ccc1-c1cc(C2CCCN(C(C)=O)C2)c(F)c2[nH]c(C(=O)N(C)C)cc12 (stereo not drawn)		A (A (>90%))	< 1	1000 to 10000
CN(C)C(=O)c1cc2c(-c3ccc(C4CCN(c5cc(F)c(C6CCC(=O)NC6=O)c(F)c5)CC4)cc3)cc(C3=CCCN(C(=O)CCn4cccn4)C3)c(F)c2[nH]1 (stereo not drawn)	100 to 1000	A (A (>90%))	< 1	
CC(C)C(=O)N1CCC=C(c2cc(-c3ccc([C@@H]4CCN(CCc5cccc6c(C7CCC(=O)NC7=O)nn(C)c56)CC4(F)F)cc3F)c3cc(C(=O)N(C)C)[nH]c3c2F)C1 (stereo partly drawn)	1000 to 10000	A (A (>90%))	< 1	
COc1cc(N2CCN(CCOCCOCCOCCOCCN(C(=O)[C@H]3CCCN(c4cncc5ccccc45)C3)c3ccc(=O)n(CC(=O)O)c3)CC2)ccc1-c1cc(C2=CCCN(C(=O)CCn3ccnn3)C2)c(F)c2[nH]c(C(=O)N(C)C)cc12	< 100	B (B (>70-90%))	100 to 1000	
Cc1cc(CCC2CCN(c3ccc(C4CCC(=O)NC4=O)cc3F)CC2)ccc1-c1cc(C2=CCCN(C(=O)CCn3ccnn3)C2)c(F)c2[nH]c(C(=O)N(C)C)cc12 (stereo not drawn)	< 100	A (A (>90%))	1 to 10	
COc1cc(N2CCN(CCOCCOCCOCCOc3ccc(C(=O)c4c(-c5c(F)ccc(F)c5C)c(C(=O)N[C@@H](CS(C)(=O)=O)c5cccc(Cl)c5)cn4C)cc3)CC2)ccc1-c1cc(C2=CCCN(C(=O)CCn3ccnn3)C2)c(F)c2[nH]c(C(=O)N(C)C)cc12	< 100			
